TDP1 cell noCPT = qHTS for Inhibitors of human tyrosyl-DNA phosphodiesterase 1 (TDP1): qHTS in cells in absence of CPT. Potency, µM (top dose mostly 46.2 µM), without a hit: top-dose activity change, negative = growth inhibition, usual class: inhibitors. DT40 Tdp1-/- hTDP1 cells, no CPT, ATP luminescence, 48 h. 15% of 420,000 active; further: potency means the concentration at half of the fitted maximal effect; on the % scale 0 is the no-effect control and ±100 the full control effect; nearly all actives have a fitted effect of over 55% in size
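Cells were dispensed at 400 per well, compounds added by pin tool, plates incubated ≥48 hr at 37 °C, then CellTiter-Glo added for 30 min at room temperature before luminescence reading. Line: DT40 Tdp1-/- complemented with hTDP1; camptothecin omitted.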
TDP1 inh = inhibitors of human tyrosyl-DNA phosphodiesterase TDP1; 0.28% of 350,000 active; recombinant TDP1, AlphaScreen DNA substrate cleavage; Potency, µM (top dose mostly 130 µM), for inactives: at the top dose activity change, negative = inhibition, most hits filed as inhibitors; further: potency means the concentration at half of the fitted maximal effect; on the % scale 0 is the no-effect control and ±100 the full control effect; nearly all actives have a fitted effect of over 40% in size
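Tdp1 1 nM final; 15 min RT w/ cpd; substrate 15 nM, 5 min; beads 10 ug/ml, 10 min; AlphaScreen read. Neg ctrl: no enzyme.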
uPA generation = cell surface uPA generation inhibition; cell surface uPA generation assay, qHTS; Potency, µM (highest dose often 38.3 µM), for inactives: at the top dose activity change, negative = inhibition, usual class: inhibitors; 0.31% of 330,000 active; active means well fitted inhibition curve with a large enough effect; inconclusive means small, poorly fitted or top-dose-only effect; inactive means no such curve, though single readings can be large or run the other way; tested in mouse RAW 264.7 cells; further: potency means the concentration at half of the fitted maximal effect; on the % scale 0 is the no-effect control and ±100 the full control effect; nearly all actives have a fitted effect of over 55% in size
miR-21 reporter = raises the signal of a miR-21 reporter | Potency, µM (doses to about 38.3 µM), for inactives: top-dose reporter change, positive = more light | HeLa miR-21 FLuc reporter, luciferase, 48 h | AID 2288 | 340,000 tested, under 10 active; active = well fitted rising curve with a large enough effect; inconclusive = small, poorly fitted or top-dose-only effect; inactive = no such curve, though single readings can be large or run the other way;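 also: % of control where 0% means no effect; miR-21 action dims this reporter so a rising signal means less miR-21 action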
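HeLa cells stably expressing CMV-driven firefly luciferase with a downstream miR-21 binding sequence, endogenously expressing miR-21, were treated with titrations (up to about 40uM final) for 48 hours at 37 degree Celsius. Luciferase luminescence was read after lysis.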
TDP1 cell CPT = DT40-hTDP1 cell growth loss with CPT; Potency, µM (highest dose often 46.2 µM), without a hit: at the top dose activity change, negative = growth inhibition, actives largely listed as inhibitors; chicken DT40 Tdp1-/-;hTDP1 cells + 20 nM CPT, ATP luminescence, 48 h; 12% of 420,000 active; further: potency means the concentration at half of the fitted maximal effect; on the % scale 0 is the no-effect control and ±100 the full control effect; nearly all actives have a fitted effect of over 55% in size
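Chicken DT40 Tdp1-/- cells complemented with human TDP1, 400 cells/well, exposed to compounds plus 20 nM camptothecin for at least 48 h at 37 C; viability read as ATP content by CellTiter-Glo luminescence.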
Starred values were filed as active, the others as inactive; ? = inconclusive; . = not tested or not shown; ! = repeats disagree; [ ] = another dose, or the depositor's remark. Shown are actives, neighbours in structure and some others; about 16% of the full set was active somewhere. Unless noted, the call rests on the fitted dose curve; in most records, active means well fitted curve in the direction sought with a large enough effect; inconclusive means small, poorly fitted or top-dose-only effect, or another doubt; inactive means no such curve, though single readings can be large; an effect the other way counts as inactive or inconclusive.

cpd	Molecule	TDP1 cell noCPT	TDP1 inh	uPA generation
1	COC(=O)Nc1c(-c2ccccc2)nc2ccc(Cl)cn12	-15.8%	1.0%	-4.2%
2	O=C(C[n+]1cc(-c2ccc(F)cc2)n2c1CCC2)OCc1ccccc1	0.4%	-1.9%	5.4%
3	COc1ccc(-c2c[n+](CC(=O)c3cccs3)c3n2CCC3)cc1	16.4µM*	.	5.0%
4	Cc1ccc(-c2c[n+](CC(=O)c3cccs3)c3n2CCC3)cc1	3.26µM*	7.1%	-0.8%
5	Cc1ccc(-c2c[n+](CC(=O)OCc3ccccc3)c3n2CCC3)cc1	-26.9%	5.6%	4.2%
6	CCOc1ccc(-c2nc(C#N)c(NCc3ccco3)o2)cc1	?	-2.7%	1.0%
7	Cc1ccc(CNc2oc(-c3ccco3)nc2C#N)cc1	?	6.5%[56.1 µM]	-5.3%
8	CCOc1ccc(/C=C/c2nc(C#N)c(NCCCN(C)C)o2)cc1	?	4.2%	-4.6%

cpd	miR-21 reporter	TDP1 cell CPT
1	-4.0%	-21.1%
2	-7.1%	-10.0%
3	17.5%	25.9µM*
4	23.3%	3.66µM*
5	-5.6%	-16.7%
6	-21.1%	20.6µM*
7	-31.1%	17.8%
8	-27.2%	20.6µM*

Later entries:
cpd	Molecule	TDP1 cell noCPT	TDP1 inh	uPA generation
9	CCOc1ccc(/C=C/c2nc(C#N)c(NCCCOC)o2)cc1	1.46µM*	2.8%	-6.3%
10	COCCCNc1oc(-c2ccccc2F)nc1C#N	-17.9%	0.0%	?
11	COCCCNc1oc(/C=C/c2ccccc2)nc1C#N	-28.4%	.	-6.3%
12	CCOc1ccc(-c2nc(C#N)c(NCCCOC)o2)cc1	6.51µM*	7.6%	.
13	COc1cc2oc(-c3ccc(O)cc3)cc(=O)c2c(O)c1OC	18.4µM*	.	?
14	COc1cccc2oc(-c3ccc(O)cc3)cc(=O)c12	-23.5%	-4.4%[56.1 µM]	.
15	O=c1cc(-c2ccccc2)oc2cc(O)c(O)c(O)c12	29.9µM*	-3.3%	?
16	O=c1cc(-c2ccc(O)cc2)oc2ccc3ccccc3c12	16.4µM*	31.6µM*	0.891µM*

cpd	miR-21 reporter	TDP1 cell CPT
9	11.6%	2.31µM*
10	-51.0%	?
11	-62.1%	-6.7%
12	-27.4%	8.2µM*
13	-48.6%	-88.0%
14	.	2.2%
15	.	16.8µM*!
16	.	?

Next records follow:
cpd	Molecule	TDP1 cell noCPT	TDP1 inh	uPA generation
17	COc1c(O)cc2oc(-c3ccc(O)cc3)cc(=O)c2c1O	?	15.4%	?
18	COc1cc2oc(-c3ccc(O)cc3)cc(=O)c2c(OC)c1O	?	-6.0%	4.9%
19	CNC(=O)COc1ccc(-c2nn(C)c(=O)c3ccccc23)cc1	-13.6%	5.9%	-4.0%
20	O=c1cc(-c2ccc(O)cc2)oc2c(O)c(O)c(O)c(O)c12	?	.	4.2%
21	COc1cc(-c2cc(=O)c3c(C)cc(O)cc3o2)cc(OC)c1OC	8.2µM*	.	-3.1%
22	COC(=O)c1n[nH]nc1-c1ccccc1	-0.4%	7.9%	1.3%
23	COC(=O)c1[nH]nc(C(=O)OC(C)(C)C)c1-c1ccccc1	13µM*	7.9%	-0.6%
24	COc1ccccc1CNCc1ccc(C)cc1	0.1%	.	-14.8%

cpd	miR-21 reporter	TDP1 cell CPT
17	-72.2%	29.1µM*
18	-32.2%	?
19	-1.8%	-28.9%
20	-4.9%	23.1µM*
21	.	?
22	-1.4%	-20.8%
23	13.6%	16.4µM*
24	6.0%	?

Four entries drawn at random from those above:
cpd	Molecule	TDP1 cell noCPT	TDP1 inh	uPA generation
23	COC(=O)c1[nH]nc(C(=O)OC(C)(C)C)c1-c1ccccc1	13µM*	7.9%	-0.6%
19	CNC(=O)COc1ccc(-c2nn(C)c(=O)c3ccccc23)cc1	-13.6%	5.9%	-4.0%
18	COc1cc2oc(-c3ccc(O)cc3)cc(=O)c2c(OC)c1O	?	-6.0%	4.9%
22	COC(=O)c1n[nH]nc1-c1ccccc1	-0.4%	7.9%	1.3%

cpd	miR-21 reporter	TDP1 cell CPT
23	13.6%	16.4µM*
19	-1.8%	-28.9%
18	-32.2%	?
22	-1.4%	-20.8%

New compounds follow.
cpd	Molecule	TDP1 cell noCPT	TDP1 inh	uPA generation
25	Cc1ccc(CNCc2cn[nH]c2-c2ccc(C)cc2)cc1	12.6µM*	0.8%	.
26	Cc1ccc(-c2[nH]ncc2CNCc2ccc(CN(C)C)cc2)cc1	22.4µM*	0.2%	.
27	CC(=O)c1ccc(N(C)C)cc1	-8.0%	6.6%	-3.6%
28	C/C(=C1/C=Nc2ccccc21)c1ccc(N(C)C)cc1	10µM*	.	.
29	O=C(Cn1nc(-c2ccccc2)nc1-c1ccccc1)OC1CCCCC1	18.4µM*	4.7%	10.5%
30	Cc1nnc(NC(=O)CSCc2cc(=O)c3ccc(C)c(C)c3[nH]2)s1	?	2.7%	.
31	Cc1nnc(NC(=O)CSCc2cc(=O)c3ccccc3[nH]2)s1	-1.0%	39.8µM*	.
32	COc1cccc(CNc2ccc([N+](=O)[O-])cc2C)c1	18.4µM*	3.5%	3.5%

cpd	miR-21 reporter	TDP1 cell CPT
25	.	7.94µM*
26	.	12.6µM*
27	-5.3%	-3.7%
28	.	7.94µM*
29	12.9%	?
30	2.4%	0.0%
31	2.2%	-2.7%
32	0.7%	?

Continuation:
cpd	Molecule	TDP1 cell noCPT	TDP1 inh	uPA generation
33	Cc1c(NC(=O)Nc2ccc(Br)cc2F)sc2nc3n(c(=O)c12)CCC(C)CC3 (configuration not stated)	?	2.0%	.
34	CC(=O)Nc1ccc(NC(=O)Nc2sc3nc4n(c(=O)c3c2C)CCC(C)CC4)cc1 (configuration not stated)	-8.8%	4.9%	.
35	CN=C1SC(CC(=O)Nc2ccccc2F)C(=O)N1/N=C/c1ccc(O)c(OC)c1 (configuration not stated)	13µM*	8.2%	17.9%
36	CCOc1ccc(/C=N/N2C(=O)C(CC(=O)Nc3ccc(F)cc3F)SC2=NC)cc1OC (configuration not stated)	?	7.9%	1.3%
37	O=C(COC(=O)c1ccccc1NCCO)Nc1cccc(S(=O)(=O)NC2=NCCCCC2)c1	-20.3%	-13.2%	-1.7%
38	O=C(NC(=O)c1ccccc1)OCCN1C(=O)c2ccccc2C1=O	4.1%	0.0%	-3.6%
39	CCC(=O)c1ccc(OCc2ccc(C(=O)c3ccccc3)cc2)cc1	8.2µM*	0.0%	2.9%
40	Cc1ccc(S(=O)(=O)c2nc(S(C)(=O)=O)sc2N2CCCCCC2)cc1	-1.5%	3.2%	-11.1%

cpd	miR-21 reporter	TDP1 cell CPT
33	1.0%	3.66µM*
34	-2.8%	-1.2%
35	-30.9%	23.1µM*
36	-5.3%	?
37	.	-13.9%
38	-1.6%	4.1%
39	1.8%	6.51µM*
40	-4.4%	-24.5%

More structures:
cpd	Molecule	TDP1 cell noCPT	TDP1 inh	uPA generation
41	Cc1ccc(S(=O)(=O)c2nc(S(C)(=O)=O)sc2N2CCC(C)CC2)cc1	14.6µM*	0.5%	?
42	CCOc1ccc(C(=O)c2oc3ccccc3c2NC(=O)c2cc(-c3ccc(Cl)cc3)on2)cc1	-25.8%	1.6%	.
43	COCc1nnc(NS(=O)(=O)c2ccc([N+](=O)[O-])cc2)s1	-4.2%	2.3%	1.7%
44	O=C(NCc1ccccc1Cl)C(=O)NCC(c1ccco1)S(=O)(=O)c1cccs1 (configuration not stated)	16.4µM*	-2.6%	.
45	O=C(NCCc1ccc(Cl)cc1)C(=O)NCC(c1ccco1)S(=O)(=O)c1cccs1 (configuration not stated)	?	0.0%	.
46	CSc1nc2c(c(=O)[nH]1)C(c1ccc(Cl)cc1)CC(=O)N2 (configuration not stated)	?	4.2%	-7.4%
47	CCOc1c(Br)cc(C2NS(=O)(=O)N=C3CCCCCN32)cc1OC (configuration not stated)	16.4µM*	2.0%	-0.8%
48	CCn1c(CSCc2ccc(Cl)cc2)n[nH]c1=S	8.2µM*	5.0%	-0.1%
49	CCn1c(CSCc2ccc(C)cc2)n[nH]c1=S	?	.	11.6%
50	Cn1c(Cc2ccccc2)n[nH]c1=S	13.2%	-5.6%	-5.8%

cpd	miR-21 reporter	TDP1 cell CPT
41	1.0%	14.6µM*
42	-3.3%	?
43	0.6%	-12.6%
44	-1.5%	?
45	4.6%	18.4µM*
46	0.1%	-3.6%
47	0.0%	?
48	0.9%	?
49	-2.6%	-0.4%
50	-5.7%	3.2%
